Data taken from US11400070B2, “Methods of treating retinal diseases” (Alimera Sciences, Inc., priority 2018, dated 2022).

System: ARPE-19 monolayers
Test: Suppression of gHSA-induced reduction of TEER in confluent ARPE-19 monolayers
Type: cell-based
Details: 100 μg/mL, 6 hours, no pretreatment

**Q.** glycated human serum albumin [gHSA] was tested. Which “Maximum reduction in resistance (TEER)” value did it give?
**A.** Its value is 23±1.7%.
